Measurements published in patent publication US5573748A, “Radiolabeled technetium chelates for use in renal function determinations” (University of Utah Research Foundation, priority 1994, dated 1996).

Legend:
[1] = Biodistribution in normal mice after intravenous injection (renal uptake); format: in vivo
Experimental: Tc-99m-MAGGG was administered simultaneously with I-131 OIH (as a reference standard) to six mice in two groups. Each mouse was injected intravenously with 0.1 milliliters of a preparation containing 0.5 microcuries of Tc-99m-MAGGG and 0.2 microcuries of I-131 OIH, and then placed into a metabolic cage capable of collecting excreted urine.
Ten minutes after injection, each mouse's urethra was ligated and the mouse was sacrificed by chloroform vapor; various samples were then taken to determine biodistribution of radiolabeled material. The results of these samples are shown in Table I. Similar measurements, shown in Table II, were taken on the second group of mice 120 minutes after injection.

[2] = normal patients; cited from earlier work

| Substance | level in the urine relative to corresponding level of I-131 OIH ([1]; 10 minutes) [%] | Blood ([1]; 10 minutes after injection) | Intestine ([1]; 10 minutes after injection) | Kidneys ([1]; 10 minutes after injection) | Liver ([1]; 10 minutes after injection) | Stomach ([1]; 10 minutes after injection) | Urine ([1]; 10 minutes after injection) | level in the urine relative to corresponding level of I-131 OIH ([1]; 120 minutes) [%] | Blood ([1]; 120 minutes after injection) | Intestine ([1]; 120 minutes after injection) | Kidneys ([1]; 120 minutes after injection) | Liver ([1]; 120 minutes after injection) | Stomach ([1]; 120 minutes after injection) | Urine ([1]; 120 minutes after injection) | tubular extraction efficiency [2] |
| --- | --- | --- | --- | --- | --- | --- | --- | --- | --- | --- | --- | --- | --- | --- | --- |
| Tc-99m-mercaptoacetylglycylglycylaspartic acid [Tc-99m-MAGG-Aspartic Acid] | 64.2 | 6.6 percentage of radioactive agen | 2.7 percentage of radioactive agen | 4.7 percentage of radioactive agen | 6.51 percentage of radioactive agen | .4 percentage of radioactive agen | 50.1 percentage of radioactive agen | 94.1 | .3 percentage of radioactive agen | 6.2 percentage of radioactive agen | .2 percentage of radioactive agen | 1.5 percentage of radioactive agen | .3 percentage of radioactive agen | 87.4 percentage of radioactive agen |  |
| Tc-99m-N,N'-bis(mercaptoacetyl)-ethylenediamine [Tc-99M-DADS] |  |  |  |  |  |  |  |  |  |  |  |  |  |  | about 53% |
